Source: patent US20190142913A1 (CREATIVE BIOTHERAPEUTICS, published 2019)

Chains of the proteins cited; added tags and fusions are not shown. Residues count along the entry.
UniProt P11021, 19-654 limits assumed: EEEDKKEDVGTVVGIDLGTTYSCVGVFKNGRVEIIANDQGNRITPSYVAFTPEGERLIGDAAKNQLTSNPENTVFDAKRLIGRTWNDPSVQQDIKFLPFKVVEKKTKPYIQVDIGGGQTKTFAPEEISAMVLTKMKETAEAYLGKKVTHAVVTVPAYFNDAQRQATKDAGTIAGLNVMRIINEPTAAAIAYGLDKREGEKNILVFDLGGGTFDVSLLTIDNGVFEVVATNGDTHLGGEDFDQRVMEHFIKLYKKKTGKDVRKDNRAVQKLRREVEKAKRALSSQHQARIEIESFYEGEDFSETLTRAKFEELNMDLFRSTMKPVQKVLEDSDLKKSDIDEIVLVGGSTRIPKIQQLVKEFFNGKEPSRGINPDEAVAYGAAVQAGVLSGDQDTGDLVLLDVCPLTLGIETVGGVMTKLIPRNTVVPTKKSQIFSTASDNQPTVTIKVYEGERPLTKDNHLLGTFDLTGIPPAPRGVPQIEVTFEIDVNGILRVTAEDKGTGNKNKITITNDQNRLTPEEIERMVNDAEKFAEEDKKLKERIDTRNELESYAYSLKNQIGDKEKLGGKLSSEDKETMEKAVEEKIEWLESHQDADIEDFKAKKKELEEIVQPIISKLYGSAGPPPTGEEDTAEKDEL

Molecular target: T1, GRP78 (glucose-regulated protein 78), StressMarq (UniProt P11021 19-654, limits assumed)
T1 construct: Unlabelled GRP78: coated on 96-well plates (ELISA), added to U87 cells, or added at 10 ug/ml to cell cultures; also called soluble GRP78
Assay: ELISA, GRP78 coated on 96-well plate, Neutra-avidin-HRP detection
Experimental: Comparison of GRP78 binding for the two kringle domains was performed by a GRP78 ELISA. GRP78 (StressMarq) (1 ug/ml@ 100 μl/well) was bound to a tissue culture coated 96 well plate overnight at 4° C. After washing 3× with PBS, the plates were blocked with superblock (Pierce) for 1 hour at room temperature. The block was removed and K5-biotin complex (i.e., K5(3-89 Active Zone)frag SEQ ID NO:1-biotin complex) and Kr1-biotin complex (i.e., Kr1(1-91 Active Zone)frag SEQ ID NO:19-biotin complex) were added to the plate at increasing concentrations (0.1 pM to 100 nM) at 4° C. for 2 hours. The plate was then washed 3× with PBS again and Neutra-avidin-HRP was added to the wells for 1 hour at room temperature. The wells were washed again with PBS and one step TMB (Pierce) was added to the wells with absorbance recorded after 30 minutes to measure kringle binding. […] To analyze these peptides for binding to GRP78, we used a 96 well competition binding assay. The assay consisted of binding GRP78 to a tissue coated 96 well plate as listed above. […] After the plate was washed, Neutra-avidin-HRP was added and bound K5 was measured by adding HRP substrate, TMB, as listed above.

Kd: 0.6 nM
B1: K5-biotin complex (K5(3-89 Active Zone)frag SEQ ID NO:1-biotin complex) (other)
chain: SEEDCMFGNGKGYRGKRATTVTGTPCQDWAAQEPHRHSIFTPETNPRAGLEKNYCRNPDGDVGGPWCYTTNPRKLYDYCDVPQCAAPKS
modifications: biotin label, site not stated
notes: also called K5-fragment biotin
